Measured values taken from patent US9550741B2, “Benzoisothiazole compounds and methods of treating schizophrenia” (SHANGHAI INSTITUTE OF PHARMACEUTICAL INDUSTRY, priority 2013, dated 2017).

Sequences of proteins named here, by UniProt entry; tags and fusion partners are left off.
UniProt P35462, whole entry: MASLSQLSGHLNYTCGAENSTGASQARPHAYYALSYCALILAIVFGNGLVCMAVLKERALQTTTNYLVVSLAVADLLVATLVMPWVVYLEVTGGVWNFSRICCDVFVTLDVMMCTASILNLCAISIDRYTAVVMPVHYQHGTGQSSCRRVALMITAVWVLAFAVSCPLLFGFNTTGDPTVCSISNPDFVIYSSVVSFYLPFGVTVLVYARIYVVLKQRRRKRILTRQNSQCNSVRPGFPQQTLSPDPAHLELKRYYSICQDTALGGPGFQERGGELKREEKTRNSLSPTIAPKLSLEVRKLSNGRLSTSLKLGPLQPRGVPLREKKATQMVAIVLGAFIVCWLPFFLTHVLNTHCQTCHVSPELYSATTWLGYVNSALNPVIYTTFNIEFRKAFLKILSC

Molecular target: human recombinant D3 receptor (Homo sapiens (Human), UniProt P35462)
Experiment: Dopamine D3 receptor binding test
Details: [3H]methyl-spiperone 0.3 nM, human recombinant D3 receptor in CHO cells; read-out: Affinity of the compound to D3 receptor, Ki value
Protocol: With [^3H]methyl-spiperone (0.3 nM) as the ligand and (+)-butaclamol (10 LM) for determining non-specific binding, binding tests are carried out on human recombinant D3 receptor (expressed in CHO cells).

CC(C)(C)c1ccc(S(=O)(=O)N[C@H]2CC[C@H](CCN3CCN(c4nsc5ccccc45)CC3)CC2)s1 [II-10, trans-N-(4-(2-(4-(benzo[d]isothiazol-3-yl)piperazin-1-yl)ethyl)cyclohexyl)-5-tert-butylthienyl-2-sulfamide]
Ki: 7.09 nM
